Measured values as given in PubChem BioAssay AID743266 (National Center for Advancing Translational Sciences (NCATS), 2014).
The list shows a part of the results, in another mix than the full data. Activity calls are given as the source filed them. Calls follow the shape of the dose curve; as a rule, active = well fitted activation curve with a large enough effect; inconclusive = small, poorly fitted or top-dose-only effect, or another doubt; inactive = no such curve, though single readings can be large or run the other way.

Protein sequences, listed by entry. Tags and fused reporters are not part of them. Lines headed by an entry give the natural chain unless they say otherwise; changes in a name come on top.
UniProt Q03431: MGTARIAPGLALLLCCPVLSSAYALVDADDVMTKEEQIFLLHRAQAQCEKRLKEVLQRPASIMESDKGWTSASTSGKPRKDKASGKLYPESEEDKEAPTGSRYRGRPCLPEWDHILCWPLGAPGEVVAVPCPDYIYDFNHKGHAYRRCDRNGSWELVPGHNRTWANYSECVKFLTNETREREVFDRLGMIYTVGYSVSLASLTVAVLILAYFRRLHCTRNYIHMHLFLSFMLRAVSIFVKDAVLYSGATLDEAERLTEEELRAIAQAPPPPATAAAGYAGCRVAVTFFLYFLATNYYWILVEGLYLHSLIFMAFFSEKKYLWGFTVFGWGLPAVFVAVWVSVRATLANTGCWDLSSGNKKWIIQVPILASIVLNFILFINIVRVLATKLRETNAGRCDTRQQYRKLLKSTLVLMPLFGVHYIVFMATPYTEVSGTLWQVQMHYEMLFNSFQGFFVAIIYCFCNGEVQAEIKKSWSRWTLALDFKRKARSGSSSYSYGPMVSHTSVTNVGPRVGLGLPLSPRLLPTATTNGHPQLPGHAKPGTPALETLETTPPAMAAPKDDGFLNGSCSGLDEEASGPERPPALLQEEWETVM

target: Parathyroid hormone/parathyroid hormone-related peptide receptor (Homo sapiens) (UniProt Q03431); assay: qHTS for PTHR1 Agonists: Primary Screen; details: HEK293 GP2 PTHR1 cells, GloSensor cAMP luminescence, 1 h; activation: at 115 µM (top of the series) unless noted; also: nearly all actives have a fitted effect of over 55% in size

| Structure (SMILES) | activation | outcome |
| --- | --- | --- |
| O=P(Nc1nccs1)(Oc1ccccc1)Oc1ccccc1 | inactive: -10.8% | – |
| O=P(Nc1nccs1)(c1ccccc1)c1nc2ccccc2s1 (stereo not drawn) | inactive | – |
| O=C(O)COc1ccc([As](=O)(O)O)cc1[N+](=O)[O-] | inactive: -16.8% | – |
| Nc1ccccc1[As](=O)(O)c1ccccc1 | inactive | – |
| NC(=O)Nc1ccc([As](=O)(O)O)cc1 | inactive | – |
| CN(C)C(=O)c1cc([N+](=O)[O-])cc2c1-c1c(cc([N+](=O)[O-])cc1[N+](=O)[O-])C2=O | inactive: -30.5% | – |
| CN(C(=O)Cc1ccc(Cl)c(Cl)c1)[C@H]1CC[C@@]2(CCCO2)C[C@@H]1N1CCCC1 | inactive: -38% | – |
| N#CCCN(C(=O)COC(=O)C(O)(c1ccccc1)c1ccccc1)c1ccc(F)cc1 | inactive: -43.6% | – |
| CCOP1(=S)c2c(C)nn(CCC#N)c2N=C(c2ccc(F)cc2)N1C (stereo not drawn) | inactive: -8.31% [at 57.5 µM] | – |
| CN(C(=O)Cc1ccccc1)[C@@H]1CC[C@]2(CCCO2)C[C@H]1N1CCCC1 | inactive | – |
| Cc1nn(-c2ccccc2)c2c1P(=O)(N1CCOCC1)N(C)C(c1ccccc1)=N2 (stereo not drawn) | inactive | – |
| Cc1ccc(C(=O)OC2CN3CCC2CC3)cc1 (stereo not drawn) | inactive | – |
| CC1CCC(C(C)C)C(OP(=O)(Nc2ccccn2)c2ccccc2)C1 (stereo not drawn) | inactive: -95.1% | – |
| CCCC1OP(=O)(Nc2ccccc2)OCC1CC (stereo not drawn) | inactive: -11.1% | – |
| CN(C)C1(CNC(=O)c2ccc(S(C)(=O)=O)cc2)CCCCC1 | inactive | – |
| O=P1(Nc2ncccn2)COc2ccccc2OC1 | inactive | – |
| Cc1ccc(OCC(=O)OC2CN3CCC2CC3)cc1 (stereo not drawn) | inactive: -2.71% [at 57.5 µM] | – |

| Structure (SMILES) | activation | outcome |
| --- | --- | --- |
| O=[As](O)(c1cccs1)c1cccs1 | inactive: -22.2% | – |
| NS(=O)(=O)c1cccc(NC(=O)COC(=O)C(O)(c2ccccc2)c2ccccc2)c1 | inactive | – |
| O=P1(Nc2ccc(Br)cn2)COc2ccccc2OC1 | – | inactive [at 57.5 µM] |
| Nc1cccc([As](=O)(O)c2ccccc2)c1 | inactive | – |
| CCOP(=O)(Nc1ccc(C)cn1)OCC | inactive | – |
| CN(CCCl)Cc1cc(Cl)c(NC2=NCCN2)c(Cl)c1 | inactive: 13% | – |
| CCC1=CC2Cc3nc4ccc(Cl)cc4c(N)c3C(C1)C2 (stereo not drawn) | inactive: -38.1% | – |
| O=P1(Nc2ccccn2)COc2ccccc2OC1 | inactive | – |
| CCOP(=O)(NC(=NC(C)c1ccccc1)NC(C)c1ccccc1)OCC (stereo not drawn) | inactive | – |
| Clc1n[nH]nc1-c1nn[nH][15n]1 | inactive | – |
| O=P1(N(CCCl)CCCl)NCCC(C(F)(F)F)O1 (stereo not drawn) | inactive | – |
| CC(C)(C)C(=O)NC(Sc1ncccn1)C(Cl)(Cl)Cl (stereo not drawn) | inactive: -21% | – |
| COc1ccccc1CNC(=O)COC(=O)C(O)(c1ccccc1)c1ccccc1 | inactive: -2.72% | – |
| CC1(CBr)Cn2c(nc3ccccc3c2=O)S1 (stereo not drawn) | – | inactive [at 57.5 µM] |
| CN(C(=O)Cc1ccc(Cl)c(Cl)c1)[C@@H]1CCCC[C@H]1N1CCCC1 | inactive: 27.8% | – |
| CC(C)/C=N\N=C(\N)N[N+](=O)[O-] | inactive | – |
